The list shows a part of the results, in another mix than the full data. Active and inactive are the calls of the source.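 How the source made its calls: active means more than half of replicates show inhibition above 20%; inconclusive means some but at most half of replicates above 20% inhibition; inactive means no replicate shows inhibition above 20%.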

Amino acid sequences for entries named in this document (tags omitted). A change or cut given only in a name is not applied to a line headed by its entry.
UniProt P49840: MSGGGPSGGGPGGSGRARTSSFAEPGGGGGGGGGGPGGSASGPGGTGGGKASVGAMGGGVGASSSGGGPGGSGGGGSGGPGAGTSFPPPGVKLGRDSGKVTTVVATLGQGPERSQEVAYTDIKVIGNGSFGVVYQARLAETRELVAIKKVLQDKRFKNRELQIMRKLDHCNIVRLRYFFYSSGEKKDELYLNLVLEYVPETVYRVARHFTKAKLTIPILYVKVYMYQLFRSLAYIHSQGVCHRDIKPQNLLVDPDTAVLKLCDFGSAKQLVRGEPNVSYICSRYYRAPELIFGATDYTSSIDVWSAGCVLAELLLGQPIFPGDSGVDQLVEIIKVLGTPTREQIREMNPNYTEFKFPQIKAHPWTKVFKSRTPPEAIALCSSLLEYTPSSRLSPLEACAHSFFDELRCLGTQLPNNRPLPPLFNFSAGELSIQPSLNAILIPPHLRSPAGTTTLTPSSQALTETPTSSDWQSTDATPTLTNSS

The assay addresses Glycogen synthase kinase-3 alpha (Homo sapiens) (UniProt P49840). The assay can be described thus: blockers of GSK3A enzyme activity – biochemical, luminescence, cell-free homogeneous, HTS, primary screen (AID 2650).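 Further: GST-tagged GSK-3 alpha with peptide substrate and 25 µM ATP; 0% = DMSO neutral wells and 100% = GW8510 positive control wells.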 The conditions noted are these: GSK-3 alpha kinase, ADP-Glo luminescence, 60 min; at 10 µM; active compounds read high. For orientation: ADP-Glo turns the ADP formed in a reaction into a luminescent signal.
In general, inhibition refers to the relative decrease from the control value, in per cent. As to `O=C(Nc1cc([As](=O)(O)O)ccc1O)c1ccccc1`, the inhibition is inactive: -0.561%.
In the case of `O=[N+]([O-])c1cccc(NC2=NCC(CBr)S2)c1` (centres undefined), the inhibition was inactive: 18.4%.
To `O=C(O)CNc1ccc([As](=O)(O)O)cc1` belongs inactive: -3.07%; to `CC(C)(C)C(=O)NC(Sc1ccncn1)C(Cl)(Cl)Cl` (centres undefined), inactive: -1.46%.
`O=[N+]([O-])c1ncn(CCn2ncnc2[N+](=O)[O-])n1`: the inhibition was inactive: 0.224%.
In the case of `CC(=O)N1C2C3N(C(C)=O)C1C1N(C(C)=O)C(C(N1C(C)=O)N3C(C)=O)N2C(C)=O`, the inhibition was inactive: -0.0273%.
In the case of `O=[N+]([O-])c1cccc2n[nH]nc12`, the inhibition is inactive: -1.38%.
To `O=[N+]([O-])c1cc([N+](=O)[O-])c(CCNc2ccccc2)c([N+](=O)[O-])c1` belongs inactive: -2.19%.
For `CCc1nc2c(n1)c1c(non1O)c1c2no[n+]1[O-]`, the inhibition is inactive: 46.5%.
To `Cc1ccc(NP(=O)(Oc2ccccc2)Oc2ccccc2)nc1` belongs inactive: -0.447%.
In the case of `COc1ccc(C2=NCC(CBr)S2)cc1` (centres undefined), the inhibition was inactive: -2.38%.
As for `CN(C)C(=O)OCCc1n(C)cc[n+]1C`, the inhibition is inactive: -0.346%.
As for `CC(C)=N/N=C(\N)N[N+](=O)[O-]`, the inhibition is inactive: 1.83%.
Take `C[N+]1=C2C=CC=CC=C2SC12C([N+](=O)[O-])=CC([N+](=O)[O-])=C[C-]2[N+](=O)[O-]` (centres undefined): the inhibition is inactive: 3.79%.
To `Nc1ccc([As](=O)(O)c2ccc(N)cc2)cc1` belongs inactive: -1.21%.
To `CCN(/C(=N/P(=O)(N1CCOCC1)N1CCOCC1)N1CCOCC1)c1ccc(OC)cc1` belongs inactive: 0.444%; to `Cc1ccc(OP(=O)(Nc2nccs2)Oc2ccc(C)cc2)cc1`, inactive: -2.16%; to `COc1ccccc1OP(=O)(Nc1ccc(C)cn1)Oc1ccccc1OC`, inactive: -3.76%.
For the molecule `Clc1ccc(Cl)c(NC2=NCC(CBr)S2)c1` (centres undefined), the inhibition was inactive: -0.586%.
To `CN1CCCC(OC(=O)C(c2ccccc2)c2ccccc2)C1` (centres undefined) belongs inactive: -28.2%; to `NC(=O)c1cc([N+](=O)[O-])cc([N+](=O)[O-])c1N`, inactive: 1.11%; to `Cc1ccc(N/C(=N/P(=O)(N2CCOCC2)N2CCOCC2)N2CCOCC2)cc1`, inactive: -1.21%.
On to `CN(C(=O)Cc1ccc(Cl)c(Cl)c1)[C@H]1CCCC[C@H]1N1CCCC1`, for which the inhibition is inactive: 2.99%.
As to `CC(C)CC(=O)NC(Sc1ccc(Cl)cc1)C(Cl)(Cl)Cl` (centres undefined), the inhibition was inactive: -0.179%.
Consider `Nc1cc(N)c2nonc2c1[N+](=O)[O-]`, for which the inhibition was inactive: 1.46%.
To `Cc1c2non([O-])c-2c(C)[n+](=O)[n+]1[O-]` belongs inactive: -1.91%; to `O=C(NC(Sc1ccncn1)C(Cl)(Cl)Cl)c1ccccc1` (centres undefined), inactive: -0.936%.
To `Oc1ccccc1CNc1ccccn1` belongs inactive: -5.94%; to `CN(C(=O)Cc1ccc(Cl)c(Cl)c1)[C@H]1CCCC[C@@H]1N1CCCC1`, inactive: 0.354%; to `Cc1ccc(NP(=O)(Oc2ccccc2F)Oc2ccccc2F)nc1`, inactive: -1.68%.
To `CCOP(=O)(Nc1ccccc1)OCC` belongs inactive: 5.03%; to `Cc1cc(SC(NC(=O)c2ccc(F)cc2)C(Cl)(Cl)Cl)ncn1` (centres undefined), inactive: -1.84%.
`O=C(O)c1ccccc1[As](=O)(O)O`: the inhibition was inactive: -2.27%.
Take `CC(=O)Nc1ccc([As](=O)(O)O)cc1`: the inhibition is inactive: -1.33%.
To `O=P(Nc1nc2ccc(Cl)cc2s1)(c1ccccc1)c1ccccc1` belongs inactive: -0.488%; to `CCN(N=Nc1nonc1N)c1nonc1N`, inactive: 4.04%; to `Nc1cccc2ccc([As](=O)(O)O)cc12`, inactive: 0.112%.
To `O=[N+]([O-])c1cc([N+](=O)[O-])c(CCN2CCOCC2)c([N+](=O)[O-])c1` belongs inactive: 2.7%; to `O=C(NC1CCS(=O)(=O)C1)NP(=S)(Oc1ccccc1)Oc1ccccc1` (centres undefined), inactive: 1.13%.
To `CCNC(=S)/N=C(\N)N[N+](=O)[O-]` belongs inactive: -0.636%.
Turning to `Cc1ccc(NP(=O)(Oc2cccc(C)c2)Oc2cccc(C)c2)nc1`, the inhibition was inactive: -5.94%.
For `CCOC(=O)NC(Sc1ccccc1)C(Cl)(Cl)Cl` (centres undefined), the inhibition was inactive: 1.55%.
Turning to `c1ccc(-c2nn[nH]n2)c(-c2nn[nH]n2)c1`, the inhibition was inactive: -0.514%.
Take `CN(C)C(=O)Oc1noc2ccccc12`: the inhibition is inactive: 2.34%.
To `Cc1ccccc1OP(=O)(Nc1ccccn1)Oc1ccccc1C` belongs inactive: -0.183%; to `CC(NC(=O)COC(=O)C(O)(c1ccccc1)c1ccccc1)c1ccccc1` (centres undefined), inactive: -0.858%.
Consider `CC(=O)NC(SC(=S)N(CC(C)C)CC(C)C)C(Cl)(Cl)Cl` (centres undefined), for which the inhibition was inactive: -0.764%.
Turning to `Cc1ccc(OP(=O)(Nc2ccccn2)Oc2ccc(C)cc2)cc1`, the inhibition was inactive: 1.21%.
To `COC(=O)c1cc2c(s1)N=C(c1ccccc1)N(C)P2(=O)N1CCOCC1` (centres undefined) belongs inactive: 0.564%; to `CCC(=O)N1C2C3N(C(=O)CC)C1C1N(C(=O)CC)C(C(N1C(=O)CC)N3C(=O)CC)N2C(=O)CC`, inactive: -0.975%.
As for `O=C(OC1CN2CCC1CC2)c1ccccc1` (centres undefined), the inhibition was inactive: 0.41%.
To `CC(C)(C)C(=O)NC(Sc1ccccc1)C(Cl)(Cl)Cl` (centres undefined) belongs inactive: -1.68%; to `CCOc1ccc(C2=NCC(CBr)S2)cc1` (centres undefined), inactive: -1.12%.
Consider `O=P1(Nc2nc3ccc(Cl)cc3s2)COc2ccccc2O1` (centres undefined), for which the inhibition was inactive: 3.73%.
To `CC(=O)Nc1ccc(Oc2c([N+](=O)[O-])cc([N+](=O)[O-])cc2[N+](=O)[O-])cc1` belongs inactive: -1.36%; to `CC(=O)Nc1ccc([As](=O)(O)O)c(O)c1`, inactive: -0.465%.
To `CC(=O)c1ccc(N2CC2c2ccncc2)cc1` (centres undefined) belongs inactive: -0.0541%; to `C[C@@H]1C=CCP(=O)(Oc2ccccc2)O1` (some centres undefined), inactive: -2.72%.
For `C[C@H]1OP(=O)(Oc2ccccc2)C[C@@H]2O[C@@H]21` (some centres undefined), the inhibition was inactive: -1.41%.
On to `c1nnnn1CCn1cnnn1`, for which the inhibition was inactive: -0.82%.
To `O=P(Nc1nccs1)(c1ccccc1)c1ccccc1` belongs inactive: -1.57%; to `CC(C)C(=O)NC(Sc1ccccc1)C(Cl)(Cl)Cl` (centres undefined), inactive: -1.86%.
To `C[C@H]1OP(=O)(Oc2ccccc2)[C@H](O)[C@H](O)[C@H]1N=[N+]=[N-]` (some centres undefined) belongs inactive: -1.5%; to `O=P(Nc1nc2ccccc2s1)(c1ccccc1)c1ccccc1`, inactive: -2.1%.

These data come from PubChem BioAssay AID2650 (Broad Institute, 2010).
